As a reminder, the IC50 is the concentration that inhibits the measured activity by half. Lower therefore signals higher potency.

In US20210395313A1, “PEPTIDE PAC1 ANTAGONISTS” (AMGEN INC., priority 2017, published 2021) one finds IC50 data, which are given here for seven compounds.

This experiment deals with T1, rat PAC1 receptor (Rattus norvegicus, UniProt P32215).
T1 construct: SHSY-5Y (human neuroblastoma cell line) and RG-2 (rat glioma cell line) cells endogenously express human and rat PAC1 receptors, respectively; endogenous in cells; host or cells: RG-2 rat glioma cells
T1 sequence (P32215 20-523): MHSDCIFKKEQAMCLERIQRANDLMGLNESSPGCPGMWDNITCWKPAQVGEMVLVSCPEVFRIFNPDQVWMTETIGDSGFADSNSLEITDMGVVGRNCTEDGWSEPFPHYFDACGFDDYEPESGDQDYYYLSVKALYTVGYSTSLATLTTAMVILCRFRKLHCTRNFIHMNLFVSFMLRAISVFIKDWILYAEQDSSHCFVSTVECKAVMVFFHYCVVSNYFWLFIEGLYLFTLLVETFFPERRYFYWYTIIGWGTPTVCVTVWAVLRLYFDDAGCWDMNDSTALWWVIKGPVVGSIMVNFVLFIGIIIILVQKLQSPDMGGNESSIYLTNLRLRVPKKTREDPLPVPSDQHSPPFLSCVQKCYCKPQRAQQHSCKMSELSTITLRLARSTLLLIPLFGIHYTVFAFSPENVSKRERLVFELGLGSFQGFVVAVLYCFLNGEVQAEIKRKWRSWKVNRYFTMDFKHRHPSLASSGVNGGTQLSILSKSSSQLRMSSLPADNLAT
In words: LANCE Ultra cAMP accumulation antagonist assay in RG-2 cells.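 Also: RG-2 rat glioma cells endogenously expressing PAC1, test peptide preincubated 30 min, then PAC1 agonist added at its EC80 for 15 min, cAMP accumulation read by LANCE Ultra.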 In kind it is cell-based. In general terms: Time-resolved FRET reads energy transfer from a long-lived donor to a nearby acceptor.

As to `CC[C@H](C)[C@H](NC(=O)[C@H](C)NC(=O)[C@H](CCCCN)NC(=O)[C@H](CCCNC(=N)N)NC(=O)[C@H](Cc1ccccc1)NC(=O)[C@H](CCC(N)=O)NC(=O)[C@@H]1CSSC[C@H](N)C(=O)N[C@@H](CC(=O)O)C(=O)N[C@@H](C)C(=O)N[C@@H]([C@@H](C)O)C(=O)N1)C(=O)N[C@@H](CC(=O)O)C(=O)N[C@@H](CC(=O)O)C(=O)N[C@H]1CSSC[C@@H](C(=O)N[C@@H](CCSC)C(=O)N[C@@H](CCCCN)C(=O)N[C@@H](CCC(N)=O)C(=O)N[C@@H](CCCCN)C(=O)N[C@@H](CCCCN)C(=O)N[C@@H](CCCCN)C(=O)N[C@@H](CCC(=O)O)C(=O)N[C@@H](Cc2ccccc2)C(=O)N[C@@H](CCCCN)C(=O)N[C@@H](C)C(=O)NCC(N)=O)NC(=O)C(C)(C)NC(=O)[C@H](CCCCN)NC(=O)[C@H](Cc2ccccc2)NC(=O)[C@H](C(C)C)NC(=O)[C@H](CO)NC(=O)CNC(=O)[C@@H]2C=CCN2C(=O)[C@H](C(C)C)NC(=O)[C@H](CC(N)=O)NC(=O)[C@H](CO)NC(=O)[C@H](Cc2c[nH]cn2)NC(=O)[C@H](Cc2c[nH]cn2)NC(=O)[C@H](C)NC(=O)[C@H](CCC(N)=O)NC(=O)[C@H](CCCCN)NC(=O)[C@H](CCC(N)=O)NC1=O` [compound 188], the IC50 fell in the range of 0.01 to 1 nM.

Compound `CC[C@H](C)[C@H](NC(=O)[C@H](C)NC(=O)[C@H](CCCCN)NC(=O)[C@H](CCCNC(=N)N)NC(=O)[C@H](Cc1ccccc1)NC(=O)[C@H](CCC(N)=O)NC(=O)[C@@H]1CSSC[C@H](N)C(=O)N[C@@H](CC(=O)O)C(=O)N[C@@H](C)C(=O)N[C@@H]([C@@H](C)O)C(=O)N1)C(=O)N[C@@H](CC(=O)O)C(=O)N[C@@H](CC(=O)O)C(=O)N[C@H]1CSSC[C@@H](C(=O)N[C@@H](CCSC)C(=O)N[C@@H](CCCCN)C(=O)N[C@@H](CCC(N)=O)C(=O)N[C@@H](CCCCN)C(=O)N[C@@H](CCCCN)C(=O)N[C@@H](CCCCN)C(=O)N[C@@H](CCC(=O)O)C(=O)N[C@@H](Cc2c[nH]c3ccccc23)C(=O)N[C@@H](CCCCN)C(=O)N[C@@H](C)C(=O)N[C@@H](CC(N)=O)C(N)=O)NC(=O)C(C)(C)NC(=O)[C@H](CCCCN)NC(=O)[C@H](Cc2ccccc2)NC(=O)[C@H](C(C)C)NC(=O)[C@H](CO)NC(=O)CNC(=O)[C@@H]2CCCN2C(=O)[C@H](C(C)C)NC(=O)[C@H](CC(N)=O)NC(=O)[C@H](CO)NC(=O)[C@H](Cc2c[nH]cn2)NC(=O)[C@H](Cc2c[nH]cn2)NC(=O)[C@H](C)NC(=O)[C@H](CCC(N)=O)NC(=O)[C@H](CCCCN)NC(=O)[C@H](CCC(N)=O)NC1=O` [compound 166] returned an IC50 of 0.01 to 1 nM.

The compound `CC[C@H](C)[C@H](NC(=O)[C@H](C)NC(=O)[C@H](CCCCN)NC(=O)[C@H](CCCNC(=N)N)NC(=O)[C@H](Cc1ccccc1)NC(=O)[C@H](CCC(N)=O)NC(=O)[C@@H]1CSSC[C@H](N)C(=O)N[C@@H](CC(=O)O)C(=O)N[C@@H](C)C(=O)N[C@@H]([C@@H](C)O)C(=O)N1)C(=O)N[C@@H](CC(=O)O)C(=O)N[C@@H](CC(=O)O)C(=O)N[C@H]1CSSC[C@@H](C(=O)N[C@@H](CCSC)C(=O)N[C@@H](CCCCN)C(=O)N[C@@H](CCC(N)=O)C(=O)N[C@@H](CCCCN)C(=O)N[C@@H](CCCCN)C(=O)N[C@@H](CCCCN)C(=O)N[C@@H](CCC(=O)O)C(=O)N[C@@H](Cc2ccccc2)C(=O)N[C@@H](CCCCN)C(=O)N[C@@H](C)C(=O)NCC(N)=O)NC(=O)C(C)(C)NC(=O)[C@H](CCCCN)NC(=O)[C@H](Cc2ccccc2)NC(=O)[C@H](C(C)C)NC(=O)[C@H](CO)NC(=O)CNC(=O)[C@@H]2CCCN2C(=O)[C@H](CCC(=O)O)NC(=O)[C@H](CC(N)=O)NC(=O)[C@H](CO)NC(=O)[C@H](Cc2c[nH]cn2)NC(=O)[C@H](Cc2c[nH]cn2)NC(=O)[C@H](C)NC(=O)[C@H](CCC(N)=O)NC(=O)[C@H](CCCCN)NC(=O)[C@H](CCC(N)=O)NC1=O` [compound 191] displayed an IC50 of 0.01 to 1 nM.

`CC[C@H](C)[C@H](NC(=O)[C@H](C)NC(=O)[C@H](CCCCN)NC(=O)[C@H](CCCNC(=N)N)NC(=O)[C@H](Cc1ccccc1)NC(=O)[C@H](CCC(N)=O)NC(=O)[C@@H]1CSSC[C@H](N)C(=O)N[C@@H](CC(=O)O)C(=O)N[C@@H](C)C(=O)N[C@@H]([C@@H](C)O)C(=O)N1)C(=O)N[C@@H](CC(=O)O)C(=O)N[C@@H](CC(=O)O)C(=O)N[C@H]1CSSC[C@@H](C(=O)N[C@@H](CCSC)C(=O)N[C@@H](CCCCN)C(=O)N[C@@H](CCC(N)=O)C(=O)N[C@@H](CCCCN)C(=O)N[C@@H](CCCCN)C(=O)N[C@@H](CCCCN)C(=O)N[C@@H](CCC(=O)O)C(=O)N[C@@H](Cc2ccccc2)C(=O)N[C@@H](CCCCN)C(=O)N[C@@H](C)C(=O)NCC(N)=O)NC(=O)C(C)(C)NC(=O)[C@H](CCCCN)NC(=O)[C@H](Cc2ccccc2)NC(=O)[C@H](C(C)C)NC(=O)[C@H](CO)NC(=O)CNC(=O)[C@@H]2CCCN2C(=O)[C@H](C(C)C)NC(=O)[C@H](CCC(=O)O)NC(=O)[C@H](CO)NC(=O)[C@H](Cc2c[nH]cn2)NC(=O)[C@H](Cc2c[nH]cn2)NC(=O)[C@H](C)NC(=O)[C@H](CCC(N)=O)NC(=O)[C@H](CCCCN)NC(=O)[C@H](CCC(N)=O)NC1=O` [compound 192] yielded an IC50 of 0.01 to 1 nM.

The compound `CC[C@H](C)[C@H](NC(=O)[C@H](C)NC(=O)[C@H](CCCCN)NC(=O)[C@H](CCCNC(=N)N)NC(=O)[C@H](Cc1ccccc1)NC(=O)[C@H](CCC(N)=O)NC(=O)[C@@H]1CSSC[C@H](N)C(=O)N[C@@H](CC(=O)O)C(=O)N[C@@H](C)C(=O)N[C@@H]([C@@H](C)O)C(=O)N1)C(=O)N[C@@H](CC(=O)O)C(=O)N[C@@H](CC(=O)O)C(=O)N[C@H]1CSSC[C@@H](C(=O)N[C@@H](CCSC)C(=O)N[C@@H](CCCCN)C(=O)N[C@@H](CCC(N)=O)C(=O)N[C@@H](CCCCN)C(=O)N[C@@H](CCCCN)C(=O)N[C@@H](CCCCN)C(=O)N[C@@H](CCC(=O)O)C(=O)N[C@@H](Cc2ccccc2)C(=O)N[C@@H](CCCCN)C(=O)N[C@@H](C)C(=O)NCC(N)=O)NC(=O)C(C)(C)NC(=O)[C@H](CCCCN)NC(=O)[C@H](Cc2ccccc2)NC(=O)[C@H](C(C)C)NC(=O)C(C)(C)NC(=O)CNC(=O)[C@@H]2CCCN2C(=O)[C@H](C(C)C)NC(=O)[C@H](CC(N)=O)NC(=O)[C@H](CO)NC(=O)[C@H](Cc2c[nH]cn2)NC(=O)[C@H](Cc2c[nH]cn2)NC(=O)[C@H](C)NC(=O)[C@H](CCC(N)=O)NC(=O)[C@H](CCCCN)NC(=O)[C@H](CCC(N)=O)NC1=O` [compound 198] returned an IC50 of 0.01 to 1 nM.

On to `CC[C@H](C)[C@H](NC(=O)[C@H](C)NC(=O)[C@H](CCCCN)NC(=O)[C@H](CCCNC(=N)N)NC(=O)[C@H](Cc1ccccc1)NC(=O)[C@H](CCC(N)=O)NC(=O)[C@@H]1CSSC[C@H](N)C(=O)N[C@@H](CC(=O)O)C(=O)N[C@@H](C)C(=O)N[C@@H]([C@@H](C)O)C(=O)N1)C(=O)N[C@@H](CC(=O)O)C(=O)N[C@@H](CC(=O)O)C(=O)N[C@H]1CSSC[C@@H](C(=O)N[C@@H](CCSC)C(=O)N[C@@H](CCCCN)C(=O)N[C@@H](CCC(N)=O)C(=O)N[C@@H](CCCCN)C(=O)N[C@@H](CCCCN)C(=O)N[C@@H](CCCCN)C(=O)N[C@@H](CCC(=O)O)C(=O)N[C@@H](Cc2ccccc2)C(=O)N[C@@H](CCCCN)C(=O)N[C@@H](C)C(=O)NCC(N)=O)NC(=O)C(C)(C)NC(=O)[C@H](CCCCN)NC(=O)[C@H](Cc2ccccc2)NC(=O)[C@H](C(C)C)NC(=O)[C@H](CC(=O)O)NC(=O)CNC(=O)[C@@H]2CCCN2C(=O)[C@H](C(C)C)NC(=O)[C@H](CC(N)=O)NC(=O)[C@H](CO)NC(=O)[C@H](Cc2c[nH]cn2)NC(=O)[C@H](Cc2c[nH]cn2)NC(=O)[C@H](C)NC(=O)[C@H](CCC(N)=O)NC(=O)[C@H](CCCCN)NC(=O)[C@H](CCC(N)=O)NC1=O` [compound 200], for which the IC50 is 0.01 to 1 nM.

For the compound `CC[C@H](C)[C@H](NC(=O)[C@H](C)NC(=O)[C@H](CCCCN)NC(=O)[C@H](CCCNC(=N)N)NC(=O)[C@H](Cc1ccccc1)NC(=O)[C@H](CCC(N)=O)NC(=O)[C@@H]1CSSC[C@H](N)C(=O)N[C@@H](CC(=O)O)C(=O)N[C@@H](C)C(=O)N[C@@H]([C@@H](C)O)C(=O)N1)C(=O)N[C@@H](CC(=O)O)C(=O)N[C@@H](CC(=O)O)C(=O)N[C@H]1CSSC[C@@H](C(=O)N[C@@H](CCSC)C(=O)N[C@@H](CCCCN)C(=O)N[C@@H](CCC(N)=O)C(=O)N[C@@H](CCCCN)C(=O)N[C@@H](CCCCN)C(=O)N[C@@H](CCCCN)C(=O)N[C@@H](CCC(=O)O)C(=O)N[C@@H](Cc2ccccc2)C(=O)N[C@@H](CCCCN)C(=O)N[C@@H](C)C(=O)NCC(N)=O)NC(=O)C(C)(C)NC(=O)[C@H](CCCCN)NC(=O)[C@H](Cc2ccccc2)NC(=O)[C@H](C(C)C)NC(=O)[C@H](CC(N)=O)NC(=O)CNC(=O)[C@@H]2CCCN2C(=O)[C@H](C(C)C)NC(=O)[C@H](CC(N)=O)NC(=O)[C@H](CO)NC(=O)[C@H](Cc2c[nH]cn2)NC(=O)[C@H](Cc2c[nH]cn2)NC(=O)[C@H](C)NC(=O)[C@H](CCC(N)=O)NC(=O)[C@H](CCCCN)NC(=O)[C@H](CCC(N)=O)NC1=O` [compound 208], the IC50 was in the range of 0.01 to 1 nM.
